# Patent US20220062291A1, “COMPOSITIONS AND METHODS OF TREATING CANCERS BY ADMINISTERING A PHENOTHIAZINE-RELATED DRUG THAT ACTIVATES PROTEIN PHOSPHATASE 2A (PP2A) WITH REDUCED INHIBITORY ACTIVITY TARGETED TO THE DOPAMINE D2 RECEPTOR AND ACCOMPANYING TOXICITY” (DANA-FARBER CANCER INSTITUTE, INC., priority 2018, published 2022)
# Protein sequences, listed by entry. Tags and fused reporters are not part of them.
# UniProt P02550, whole entry: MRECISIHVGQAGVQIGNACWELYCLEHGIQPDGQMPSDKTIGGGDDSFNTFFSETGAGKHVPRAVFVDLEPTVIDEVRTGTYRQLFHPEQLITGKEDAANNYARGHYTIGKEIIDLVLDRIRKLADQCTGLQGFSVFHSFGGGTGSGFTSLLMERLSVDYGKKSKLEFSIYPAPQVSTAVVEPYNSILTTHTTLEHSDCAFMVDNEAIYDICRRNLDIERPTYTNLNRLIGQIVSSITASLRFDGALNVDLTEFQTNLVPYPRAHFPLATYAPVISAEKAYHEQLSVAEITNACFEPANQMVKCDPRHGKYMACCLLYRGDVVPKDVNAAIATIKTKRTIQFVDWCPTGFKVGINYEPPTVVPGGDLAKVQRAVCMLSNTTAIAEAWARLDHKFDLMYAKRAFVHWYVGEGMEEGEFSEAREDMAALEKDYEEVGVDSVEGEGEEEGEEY
# UniProt P02554, whole entry: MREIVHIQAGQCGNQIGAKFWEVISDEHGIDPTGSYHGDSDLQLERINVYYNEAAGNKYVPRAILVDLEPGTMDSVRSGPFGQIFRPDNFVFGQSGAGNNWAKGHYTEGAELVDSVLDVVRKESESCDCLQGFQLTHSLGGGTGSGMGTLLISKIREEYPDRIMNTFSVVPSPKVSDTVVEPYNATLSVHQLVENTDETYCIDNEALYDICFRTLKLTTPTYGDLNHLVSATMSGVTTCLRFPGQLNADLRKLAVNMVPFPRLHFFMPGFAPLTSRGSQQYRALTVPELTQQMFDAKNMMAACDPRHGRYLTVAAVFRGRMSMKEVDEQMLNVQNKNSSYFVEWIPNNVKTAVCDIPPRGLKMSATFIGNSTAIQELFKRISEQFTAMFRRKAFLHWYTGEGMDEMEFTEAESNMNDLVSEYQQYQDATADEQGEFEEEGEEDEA
# Experiments:
# [1] = tested on: PLK1, PLK4, AURKA, KIF11, SASS6, RCC1, HAUS8, TPX2, PCNT, CENPJ and TUBG1 in KOPT-K1 cells; assay: Relative mRNA expression of spindle monopolarity genes; type: cell-based, human; settings: 10 μM, 6 hours
# Description: The relative mRNA expression of genes whose inducible CRISPR-cas9 knockout causes cell cycle arrest in prometaphase yielding spindle monopolarity (PLK1, PLK4, AURKA, KIF11, SASS6, RCC1, HAUS8, TPX2, PCNT, CENPJ and TUBG1) (McKinley et al., Dev. Cell 40:405-420 (2017)) was evaluated in KOPT-K2 cell lines. KOPT-K1 cells were treated with DMSO as control, PPZ at 10 μM or iPAP1 at 1 μM for 6 hours. The results are illustrated in FIG. 33.
# [2] = tested on: PP2A; assay: PP2A phosphatase activity in treated KOPT-K1 cells; type: cell-based, human; settings: 10 μM
# Description: Cells were treated with PPZ at 10 μM for three hours before the activity of PP2A was quantified. Data are presented as means±s.d. (n=3, biological replicates). KO; knock out. **P<0.01, ***P<0.001 by student's t-test.
# For IC50 calculation, KOPT-K1 cells were treated with each of the compounds at various concentrations for 72 hours, followed by the determination of viable cell numbers with PrestoBlue® cell viability reagent. For the PP2A phosphatase activity assay, KOPT-K1 cells were treated with each of the compounds at 10 μM for 3 hours before phosphatase activity was measured. Dopamine D2 receptor activity was monitored in HEK293T cells coexpressing the dopamine D2 receptor, modified G protein and SRE luciferase reporter. Cells were treated with each of the compound at 10 μM for 3 hours, then lysed for the luciferase reporter assay.
# Three-dimensional plots of PPZ analogs representing their inhibitory concentration 50 (IC50) values in a T-ALL cell line (KOPT-K1 cells), as well as PP2A activation and DRD2 inhibition potentials (FIG. 23A). For IC50 calculations, KOPT-K1 cells were treated with each of the compound at various concentrations for 72 hours, then their viability was examined by PrestoBlue® Cell Viability Reagent (Thermo Fisher Scientific). […] DRD2 activity was monitored in HEK293T cells expressing DRD2, modified G protein and SRE luciferase reporter. […]
# [3] = molecular target: tubulin from porcine brain (Sus scrofa, UniProt P02550+P02554); assay: Fluorescence-based tubulin polymerization assay; settings: concentrations of up to 2.5 or 5 μM
structure (smiles),measurement,setting,value
"OCCN1CCN(CCCN2c3ccccc3Sc3ccc(Cl)cc32)CC1 [PPZ, perphenazine, reference compound]",relative mRNA expression,[1],significantly down-regulated the expression levels of most of these genes
same,phosphatase activity of PP2A relative to basal level,[2],up to twice its basal level; also recorded: up to two-fold
same,inhibition of tubulin polymerization,[3],inhibition of tubulin polymerization was not detected

# Entries after “also recorded” stand apart in the source; their conditions may differ.
